# scFv variants of Ab-14 (heavy chain) against a SARS-CoV-2 spike peptide

Data: MIT Lincoln Laboratory AlphaSeq set, Engelhart et al. 2022, doi:10.1038/s41597-022-01779-4, as distributed in FLAb.

The target is the same throughout: PDVDLGDISGINAS, from the HR2 region of SARS-CoV-2 spike.

The variants keep the light chain, the linker and the frameworks of Ab-14 (scFv order VH, the linker GGGGSGGGGSGGGGS, VL).
VH: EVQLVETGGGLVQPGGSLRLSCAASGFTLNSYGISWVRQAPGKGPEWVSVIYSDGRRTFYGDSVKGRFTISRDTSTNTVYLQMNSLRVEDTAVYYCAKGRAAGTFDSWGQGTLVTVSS
VL: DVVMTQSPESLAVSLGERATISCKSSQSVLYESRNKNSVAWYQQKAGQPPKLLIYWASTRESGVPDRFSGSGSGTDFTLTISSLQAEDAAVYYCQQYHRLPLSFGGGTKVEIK

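Library AAYL49 holds single substitutions and randomly drawn double and triple substitutions in the CDRs. The scFvs were displayed on barcoded MATa yeast, the peptide on MATalpha yeast. After mating in shaken culture at 30 °C for 16 h, diploids were selected and their barcode pairs sequenced. Each replicate has its own calibration line, from reference interactions of the BCL2 family. Mating was done three times.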

Positions count from residue 1 of the parent VH; D54I puts I in place of D.
Values are log10 of the apparent Kd in nM; lower means stronger binding.
Replicates are averaged; those with no signal do not enter the mean.
Where no diploid with the target was found in that replicate, the entry reads "ND": below detection, most likely a poor binder, though not proof of it.

{"changes": "D54I+V64L+R100C", "log10 Kd, replicates": "ND / ND / ND", "log10 Kd (nM), mean": "ND", "empty controls": "0/9"}
{"changes": "N30F+D54A+F105K", "log10 Kd, replicates": "3.69 / ND / ND", "log10 Kd (nM), mean": "3.69", "empty controls": "0/9"}
{"changes": "G55I+D62W+G99R", "log10 Kd, replicates": "ND / ND / ND", "log10 Kd (nM), mean": "ND", "empty controls": "3/9 (4.13)"}
{"changes": "Y32L+S53G+T104P", "log10 Kd, replicates": "ND / 4.16 / 5.78", "log10 Kd (nM), mean": "4.97", "empty controls": "1/9 (4.97)"}
{"changes": "N30P+S31Y+K65G", "log10 Kd, replicates": "ND / ND / ND", "log10 Kd (nM), mean": "ND", "empty controls": "4/9 (4.50)"}
{"changes": "V50L+R56A+D62W", "log10 Kd, replicates": "ND / 3.66 / ND", "log10 Kd (nM), mean": "3.66", "empty controls": "1/9 (4.33)"}
{"changes": "Y32M+G55A+R56H", "log10 Kd, replicates": "ND / ND / ND", "log10 Kd (nM), mean": "ND", "empty controls": "1/9 (2.57)"}
{"changes": "G26C+F59D+Y60L", "log10 Kd, replicates": "ND / ND / ND", "log10 Kd (nM), mean": "ND", "empty controls": "0/9"}
{"changes": "Y52S+D106T", "log10 Kd, replicates": "ND / ND / 5.19", "log10 Kd (nM), mean": "5.19", "empty controls": "3/9 (4.14)"}
{"changes": "L29P+N30W+T58S", "log10 Kd, replicates": "ND / ND / ND", "log10 Kd (nM), mean": "ND", "empty controls": "0/9"}
{"changes": "T28R+G33S+A102P", "log10 Kd, replicates": "ND / ND / ND", "log10 Kd (nM), mean": "ND", "empty controls": "2/9 (5.30)"}
{"changes": "N30Y+S107V", "log10 Kd, replicates": "1.82 / 2.07 / 1.99", "log10 Kd (nM), mean": "1.96", "empty controls": "2/9 (3.64)"}
{"changes": "F27K+L29F+D54V", "log10 Kd, replicates": "ND / ND / ND", "log10 Kd (nM), mean": "ND", "empty controls": "2/9 (4.55)"}
{"changes": "G26V+I34L+D106H", "log10 Kd, replicates": "4.55 / ND / ND", "log10 Kd (nM), mean": "4.55", "empty controls": "6/9 (4.17)"}
{"changes": "I51A+Y60P+D106W", "log10 Kd, replicates": "5.37 / ND / 4.38", "log10 Kd (nM), mean": "4.88", "empty controls": "1/9 (5.41)"}
{"changes": "R56C+K65H+A102D", "log10 Kd, replicates": "ND / ND / ND", "log10 Kd (nM), mean": "ND", "empty controls": "0/9"}
{"changes": "N30A+R56K+D62L", "log10 Kd, replicates": "2.32 / 2.53 / 2.00", "log10 Kd (nM), mean": "2.28", "empty controls": "0/9"}
{"changes": "G55T+R57L+V64Q", "log10 Kd, replicates": "ND / ND / ND", "log10 Kd (nM), mean": "ND", "empty controls": "2/9 (3.59)"}
{"changes": "D62H+V64G+K65C", "log10 Kd, replicates": "ND / ND / ND", "log10 Kd (nM), mean": "ND", "empty controls": "4/9 (4.16)"}

Repeated from above, the 2 best binders with a signal in all replicates:

{"changes": "N30Y+S107V", "log10 Kd, replicates": "1.82 / 2.07 / 1.99", "log10 Kd (nM), mean": "1.96", "empty controls": "2/9 (3.64)"}
{"changes": "N30A+R56K+D62L", "log10 Kd, replicates": "2.32 / 2.53 / 2.00", "log10 Kd (nM), mean": "2.28", "empty controls": "0/9"}

Nonspecific signal, from three strains lacking the peptide, appeared in 15% of pairings of library AAYL49, centred on 4.06 (5% of these signals below 2.83); values are not corrected for it. For each scFv, signals with the empty controls are counted beside the result, with their mean in brackets.
Parent in this assay: reference entry 0.65, copy in this library 4.11 (one replicate of three).